# Measurements taken from patent US20040253214A1.
# Target: human EGF receptor on HT1080 cells (human) (UniProt P00533)
# Test: cell-based or functional assay
substance,measurement,value
"EXGaLVMoT chimeric envelope (EGF displayed through a factor Xa-cleavable linker as an N-terminal extension of the Gibbon Ape Leukaemia virus SU glycoprotein), on retroviral vector particles (from UniProt P01133 971-1023; P21415 43-653; P03385 633-665)","Titre of GaLV vectors on EGF-R positive cells, HT1080, +Xa (displayed EGF domain cleaved with factor Xa before infection)",36000 efu/ml
same,"Titre of GaLV vectors on EGF-R positive cells, HT1080, -Xa",3600 efu/ml
